Earlier results on 1 substance are cited in patent US20160231323A1, “PROTECTION OF TCR SIGNALING CHAINS IN CANCER PATIENTS AND ENHANCEMENT OF CAR-T CELL THERAPY” (Batu Biologics, Inc., priority 2015, published 2016).

The data set concerns tumour mass. Particulars: trials where IL-2 increased NK activity.

Consider “IL-2: immunomodulatory compound (cytokine) administered to increase NK activity in cancer patients”, for which the “effect on the tumour mass” value was “minimal”.
